ChEMBL document CHEMBL1155799 (Bioorg Med Chem, 2008)

The chains behind the UniProt entries cited, without tags or fusion partners. Where a name states a change or a piece, a line headed by the entry shows the natural chain unless it says otherwise.
UniProt P35367, whole entry: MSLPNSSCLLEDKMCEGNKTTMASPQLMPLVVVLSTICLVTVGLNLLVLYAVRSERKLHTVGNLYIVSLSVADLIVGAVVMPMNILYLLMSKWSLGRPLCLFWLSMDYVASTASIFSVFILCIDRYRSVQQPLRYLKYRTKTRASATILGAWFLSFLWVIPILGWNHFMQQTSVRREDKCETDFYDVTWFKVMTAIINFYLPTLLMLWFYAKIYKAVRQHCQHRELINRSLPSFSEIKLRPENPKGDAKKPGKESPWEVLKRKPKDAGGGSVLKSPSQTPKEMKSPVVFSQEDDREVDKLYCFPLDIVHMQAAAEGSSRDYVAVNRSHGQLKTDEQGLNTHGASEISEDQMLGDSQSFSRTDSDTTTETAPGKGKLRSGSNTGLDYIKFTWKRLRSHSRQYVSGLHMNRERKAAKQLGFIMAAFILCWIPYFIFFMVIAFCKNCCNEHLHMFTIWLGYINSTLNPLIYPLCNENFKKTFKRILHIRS
UniProt P35462, whole entry: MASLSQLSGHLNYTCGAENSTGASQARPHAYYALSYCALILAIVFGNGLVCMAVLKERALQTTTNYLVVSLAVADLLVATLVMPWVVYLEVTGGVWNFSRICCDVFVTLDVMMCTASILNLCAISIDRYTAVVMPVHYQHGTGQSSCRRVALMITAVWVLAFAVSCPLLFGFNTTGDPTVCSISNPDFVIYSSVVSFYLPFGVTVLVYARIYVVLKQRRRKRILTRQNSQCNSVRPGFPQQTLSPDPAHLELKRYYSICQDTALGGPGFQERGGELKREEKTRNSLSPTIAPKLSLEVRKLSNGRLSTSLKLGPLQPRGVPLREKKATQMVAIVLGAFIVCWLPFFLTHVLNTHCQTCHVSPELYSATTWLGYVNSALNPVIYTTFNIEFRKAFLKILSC
UniProt P28223, whole entry: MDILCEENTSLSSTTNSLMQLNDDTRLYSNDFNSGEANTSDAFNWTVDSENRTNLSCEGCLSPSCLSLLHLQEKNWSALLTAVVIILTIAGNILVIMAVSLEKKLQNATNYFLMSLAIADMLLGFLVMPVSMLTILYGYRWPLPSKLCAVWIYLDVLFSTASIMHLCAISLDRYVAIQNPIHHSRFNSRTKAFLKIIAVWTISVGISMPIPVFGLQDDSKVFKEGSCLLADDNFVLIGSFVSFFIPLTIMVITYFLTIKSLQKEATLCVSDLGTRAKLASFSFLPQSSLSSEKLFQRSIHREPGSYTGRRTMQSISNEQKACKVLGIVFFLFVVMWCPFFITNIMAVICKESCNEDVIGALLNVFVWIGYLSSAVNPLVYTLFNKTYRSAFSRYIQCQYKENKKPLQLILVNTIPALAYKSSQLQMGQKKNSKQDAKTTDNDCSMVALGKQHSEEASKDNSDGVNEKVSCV
UniProt P21917, whole entry: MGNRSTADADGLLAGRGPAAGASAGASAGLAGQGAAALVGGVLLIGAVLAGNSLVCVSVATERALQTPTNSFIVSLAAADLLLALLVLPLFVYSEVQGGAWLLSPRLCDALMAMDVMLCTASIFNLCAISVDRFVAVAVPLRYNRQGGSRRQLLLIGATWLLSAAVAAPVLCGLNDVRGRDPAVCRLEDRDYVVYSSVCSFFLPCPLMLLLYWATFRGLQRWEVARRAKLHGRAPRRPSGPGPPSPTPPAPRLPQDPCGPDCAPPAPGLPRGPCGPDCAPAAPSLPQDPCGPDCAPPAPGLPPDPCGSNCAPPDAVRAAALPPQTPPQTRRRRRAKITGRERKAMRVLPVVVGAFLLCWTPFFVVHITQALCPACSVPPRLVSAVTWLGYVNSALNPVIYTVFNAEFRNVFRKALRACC
UniProt P08908, whole entry: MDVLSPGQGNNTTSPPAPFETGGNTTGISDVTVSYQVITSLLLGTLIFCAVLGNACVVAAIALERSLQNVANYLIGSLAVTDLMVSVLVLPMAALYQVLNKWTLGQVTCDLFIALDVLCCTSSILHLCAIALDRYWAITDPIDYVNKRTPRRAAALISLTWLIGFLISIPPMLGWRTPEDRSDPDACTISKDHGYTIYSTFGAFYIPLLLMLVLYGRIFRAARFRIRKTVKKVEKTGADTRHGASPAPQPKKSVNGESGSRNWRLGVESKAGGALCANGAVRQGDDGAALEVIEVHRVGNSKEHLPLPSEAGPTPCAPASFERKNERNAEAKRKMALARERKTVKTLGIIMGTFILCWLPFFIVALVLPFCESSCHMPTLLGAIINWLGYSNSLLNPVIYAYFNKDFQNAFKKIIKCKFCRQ
UniProt P28335: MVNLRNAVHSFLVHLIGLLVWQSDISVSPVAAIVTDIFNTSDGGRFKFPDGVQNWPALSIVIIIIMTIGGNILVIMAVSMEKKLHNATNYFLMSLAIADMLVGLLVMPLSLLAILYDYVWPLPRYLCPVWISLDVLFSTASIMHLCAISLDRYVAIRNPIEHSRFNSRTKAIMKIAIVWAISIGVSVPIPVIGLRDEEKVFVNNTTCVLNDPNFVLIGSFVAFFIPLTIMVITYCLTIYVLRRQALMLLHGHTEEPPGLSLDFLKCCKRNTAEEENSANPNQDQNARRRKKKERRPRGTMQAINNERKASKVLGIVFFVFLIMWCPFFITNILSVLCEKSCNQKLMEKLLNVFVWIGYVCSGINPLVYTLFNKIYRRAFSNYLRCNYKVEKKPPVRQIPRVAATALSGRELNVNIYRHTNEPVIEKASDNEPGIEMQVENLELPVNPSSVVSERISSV
UniProt Q63380, whole entry: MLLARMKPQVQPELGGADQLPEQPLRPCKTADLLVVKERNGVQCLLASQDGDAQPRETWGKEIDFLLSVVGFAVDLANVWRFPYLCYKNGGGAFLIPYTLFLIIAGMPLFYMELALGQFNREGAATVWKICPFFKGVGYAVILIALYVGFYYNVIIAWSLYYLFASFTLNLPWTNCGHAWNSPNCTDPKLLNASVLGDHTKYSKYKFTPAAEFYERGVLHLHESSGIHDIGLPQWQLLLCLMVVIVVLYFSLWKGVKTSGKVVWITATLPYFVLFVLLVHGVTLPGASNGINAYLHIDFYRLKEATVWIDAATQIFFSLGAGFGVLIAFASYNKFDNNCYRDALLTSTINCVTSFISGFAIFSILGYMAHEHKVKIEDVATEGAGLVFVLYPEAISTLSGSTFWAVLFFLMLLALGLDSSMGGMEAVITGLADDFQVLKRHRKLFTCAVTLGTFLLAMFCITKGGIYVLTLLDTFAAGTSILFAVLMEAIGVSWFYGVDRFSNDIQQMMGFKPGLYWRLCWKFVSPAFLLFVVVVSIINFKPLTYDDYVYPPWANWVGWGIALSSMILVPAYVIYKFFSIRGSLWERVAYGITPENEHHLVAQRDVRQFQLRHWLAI
UniProt P11229: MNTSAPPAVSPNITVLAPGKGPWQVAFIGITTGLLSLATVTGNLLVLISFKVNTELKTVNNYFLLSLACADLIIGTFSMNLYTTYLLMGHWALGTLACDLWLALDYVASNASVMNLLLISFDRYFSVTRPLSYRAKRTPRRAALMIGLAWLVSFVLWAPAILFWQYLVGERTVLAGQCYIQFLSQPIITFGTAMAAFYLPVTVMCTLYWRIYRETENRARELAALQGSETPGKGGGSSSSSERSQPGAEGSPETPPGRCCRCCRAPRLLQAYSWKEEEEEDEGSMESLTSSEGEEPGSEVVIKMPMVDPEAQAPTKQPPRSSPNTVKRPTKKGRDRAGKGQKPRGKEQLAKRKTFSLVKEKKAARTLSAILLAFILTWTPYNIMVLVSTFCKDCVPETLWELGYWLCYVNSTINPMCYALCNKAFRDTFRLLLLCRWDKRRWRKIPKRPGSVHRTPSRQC
UniProt P21728, whole entry: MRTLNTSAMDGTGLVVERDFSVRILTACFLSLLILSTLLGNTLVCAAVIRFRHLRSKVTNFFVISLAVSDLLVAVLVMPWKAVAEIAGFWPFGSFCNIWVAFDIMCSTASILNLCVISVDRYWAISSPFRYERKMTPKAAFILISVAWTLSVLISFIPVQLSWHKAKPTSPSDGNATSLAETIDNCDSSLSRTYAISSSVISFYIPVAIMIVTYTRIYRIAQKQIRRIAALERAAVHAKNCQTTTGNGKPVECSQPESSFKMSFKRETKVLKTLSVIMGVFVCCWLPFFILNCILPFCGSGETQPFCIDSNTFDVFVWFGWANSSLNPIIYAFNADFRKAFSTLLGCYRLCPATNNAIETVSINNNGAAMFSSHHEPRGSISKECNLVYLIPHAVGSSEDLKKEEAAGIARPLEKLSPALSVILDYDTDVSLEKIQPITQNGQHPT

How the values were obtained:
Histamine H1 receptor = Histamine H1 receptor (Homo sapiens, UniProt P35367)
D(3) dopamine receptor = D(3) dopamine receptor (Homo sapiens, UniProt P35462)
[1] = biological target: 5-hydroxytryptamine receptor 2A (Homo sapiens, UniProt P28223)
D(4) dopamine receptor = D(4) dopamine receptor (Homo sapiens, UniProt P21917)
[2] = biological target: 5-hydroxytryptamine receptor 1A (Homo sapiens, UniProt P08908)
[3] = biological target: 5-hydroxytryptamine receptor 2C (Homo sapiens, UniProt P28335)
Transporter = Transporter (Rattus norvegicus, UniProt Q63380)
[4] = biological target: Muscarinic acetylcholine receptor M1 (Homo sapiens, UniProt P11229)
D(1A) dopamine receptor = D(1A) dopamine receptor (Homo sapiens, UniProt P21728)

SMILES: O=C(CCCN1C2CCC1CC(c1ccccc1)C2)c1ccc(F)cc1 (stereo not given)
- Ki (Histamine H1 receptor): 974 nM

SMILES: O=C(CCCN1C2CCC1CN(c1ccc(Cl)cc1)CC2)c1ccc(F)cc1 (stereo not given)
- Ki (D(3) dopamine receptor): 548 nM
- Ki (Histamine H1 receptor): 1010 nM

SMILES: O=C(CCCN1CCN(c2ncccn2)CC1)c1ccc(F)cc1
- Ki [1]: 22 nM
- Ki (D(3) dopamine receptor): 244 nM
- Ki (D(4) dopamine receptor): 6.53 nM
- Ki [2]: 30.5 nM
- Ki [3]: 4130 nM
- Ki (Histamine H1 receptor): 912 nM

SMILES: O=C(CCCN1CCN(c2ccc(Cl)cc2)CC1)c1ccc(F)cc1
- Ki (Histamine H1 receptor): 158 nM

SMILES: O=C(CCCN1C2CCC1CC(O)(c1ccccc1)C2)c1ccc(F)cc1 (stereo not given)
- Ki (Histamine H1 receptor): 635 nM

SMILES: O=C1Cc2cc(CCN3CCN(c4nsc5ccccc45)CC3)c(Cl)cc2N1 [ZIPRASIDONE]
- Ki (Transporter): 48 nM

SMILES: O=C(CCCN1CCCN(c2ccc(Cl)cc2)CC1)c1ccc(F)cc1
- Ki [1]: 23.6 nM
- Ki (D(3) dopamine receptor): 159 nM
- Ki (Transporter): 851 nM
- Ki [2]: 117 nM
- Ki [3]: 1420 nM
- Ki (Histamine H1 receptor): 189 nM
- Ki [4]: 872 nM
- Ki (D(1A) dopamine receptor): 163 nM
